The target in this experiment is T1, human cloned CHRM4 receptor (M4_CHO cells) (Homo sapiens, UniProt P08173).
T1 construct: expressed in transfected cells; host or cells: CHO-K1
Description: CHRM4 Ca++ Flux Assay (agonist mode, FDSS 7000EX). As to conditions: Percent Activity, read-out: M4 FDSS PA. The format is cell-based. As to the method:
The above examples were characterized by measuring the intracellular mobilization of Ca++ ions caused by signaling events mediated by the receptor. The Intra-cellular Calcium flux levels were captured by the highly sensitive Ca++ indicator, Calcium Assay Kit (BD Biosciences, Catalog Number 640178). The fluorescent activity from all receptors were monitored by the fluorescent imager, FDSS 7000EX (Hamamatsu) over a span of 3 minutes.
CHO-K1 cells stably expressing the human cloned CHRM4 receptor (M4_CHO cells) were grown and maintained in a monolayer culture with F12/HAM (Life Technologies) supplemented with 10% Fetal Bovine Serum, 1× Pen-Strep, and 0.4 mg/mL Geneticin in a humidified atmosphere (5% CO2) at 37° C. The cultures were grown to 80-90% confluency in T150 flasks (Corning) and washed with 1×DPBS then lifted with 0.05% Trypsin (Life Technologies). The cells were harvested in growth media then spun (1K rpm, 3 minutes) and cryopreserved using Recovery Cell Culture Freezing Media (Gibco Technologies). […]
Prior to the day of the assay, stable M4_CHO cells were thawed and plated on 384 well black walled clear bottom TC treated plates (Greiner Cat #781091) at 12K cells/well using F12/HAM Media supplemented with 10% FBS (Life Technologies) and kept overnight in a humidified atmosphere (5% CO2) at 37° C. […] The Percent Activity (PA) was measured to EC100 of Carbachol.

Protein sequences, listed by entry. Tags and fused reporters are not part of them.
UniProt P08173, whole entry: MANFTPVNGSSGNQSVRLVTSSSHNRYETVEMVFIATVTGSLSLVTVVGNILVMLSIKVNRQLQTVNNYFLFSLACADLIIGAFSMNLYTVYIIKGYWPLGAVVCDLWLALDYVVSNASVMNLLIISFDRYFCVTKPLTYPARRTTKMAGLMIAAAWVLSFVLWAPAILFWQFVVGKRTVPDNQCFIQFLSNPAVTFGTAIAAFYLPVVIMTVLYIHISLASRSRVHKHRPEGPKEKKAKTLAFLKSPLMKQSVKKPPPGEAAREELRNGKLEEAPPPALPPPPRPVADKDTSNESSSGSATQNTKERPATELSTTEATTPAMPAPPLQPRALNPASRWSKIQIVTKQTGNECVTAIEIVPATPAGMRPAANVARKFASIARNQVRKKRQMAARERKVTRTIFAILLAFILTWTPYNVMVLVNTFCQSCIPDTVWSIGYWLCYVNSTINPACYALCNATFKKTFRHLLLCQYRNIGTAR

For the compound `CCOc1ccccc1C1CCN([C@@H]2CCC3(C2)CN(C(=O)C2COC2)C3)CC1` [Example 7J, (R)-(6-(4-(2-ethoxyphenyl)piperidin-1-yl)-2-azaspiro[3.4]octan-2-yl)(oxetan-3-yl)methanone], the Emax was 65%.

For the compound `COc1ccc(F)cc1C1CCN([C@@H]2CCC3(C2)CN(C(=O)C2COC2)C3)CC1` [Example 6A, (R)-(6-(4-(5-fluoro-2-methoxyphenyl)piperidin-1-yl)-2-azaspiro[3.4]octan-2-yl)(oxetan-3-yl)methanone], the Emax is 52%.

The values are drawn from patent US12122761B2, “2-azaspiro[3.4]octane derivatives as M4 agonists” (NOVARTIS AG, priority 2019, dated 2024).
